Assay results taken from ChEMBL document CHEMBL4428099, “Identification of indole scaffold-based dual inhibitors of NOD1 and NOD2” (Bioorg Med Chem, 2016).

Molecular target: T1, Nucleotide-binding oligomerization domain-containing protein 1 (Homo sapiens, UniProt Q9Y239)
T1 sequence (Q9Y239 whole entry): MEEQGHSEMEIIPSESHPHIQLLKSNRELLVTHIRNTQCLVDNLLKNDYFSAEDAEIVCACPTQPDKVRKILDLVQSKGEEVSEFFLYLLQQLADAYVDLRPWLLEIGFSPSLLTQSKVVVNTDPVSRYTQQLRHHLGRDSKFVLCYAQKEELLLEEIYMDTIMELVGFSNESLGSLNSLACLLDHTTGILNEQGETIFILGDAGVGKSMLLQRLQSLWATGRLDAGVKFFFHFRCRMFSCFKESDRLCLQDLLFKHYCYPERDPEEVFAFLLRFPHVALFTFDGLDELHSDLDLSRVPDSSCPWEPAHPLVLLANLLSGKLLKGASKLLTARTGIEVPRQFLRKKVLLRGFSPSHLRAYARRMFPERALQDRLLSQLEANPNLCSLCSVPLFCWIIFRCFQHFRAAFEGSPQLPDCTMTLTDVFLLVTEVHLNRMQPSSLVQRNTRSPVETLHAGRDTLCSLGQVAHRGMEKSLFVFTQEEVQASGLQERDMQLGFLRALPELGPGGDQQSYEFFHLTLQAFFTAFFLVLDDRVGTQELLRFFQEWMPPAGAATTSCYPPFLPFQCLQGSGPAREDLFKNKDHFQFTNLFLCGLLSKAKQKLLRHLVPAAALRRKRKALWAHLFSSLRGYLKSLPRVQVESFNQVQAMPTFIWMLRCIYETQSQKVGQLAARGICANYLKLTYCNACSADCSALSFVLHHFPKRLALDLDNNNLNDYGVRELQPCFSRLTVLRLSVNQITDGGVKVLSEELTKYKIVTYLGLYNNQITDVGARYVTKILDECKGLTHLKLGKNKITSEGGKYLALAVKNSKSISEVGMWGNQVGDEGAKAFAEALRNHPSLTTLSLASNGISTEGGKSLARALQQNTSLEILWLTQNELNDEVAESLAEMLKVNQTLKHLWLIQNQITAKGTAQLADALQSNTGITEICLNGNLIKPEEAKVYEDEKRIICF
Test: Inhibition of human NOD1 over-expressed in HEK-Blue cells assessed as inhibition of […] NF-kappaB transcriptional activity preincubated for 1 hr followed by addition of C12-iE-DAP measured after 18 hrs by SEAP reporter gene assay
Format: cell-based

SMILES: Cc1ccc(S(=O)(=O)n2c(N)nc3ccccc32)cc1
- IC50: 560 to 771 nM
